Values of other authors as cited in paper PMC4154802 (European journal of nuclear medicine and molecular imaging, 2011).

Tested on: high HER2 expression tumors
Details: in vivo

^18F-trastuzumab-Fab: 18F-labeled trastuzumab Fab, 50 kDa
tumor uptake: 1.31 %ID/g
